Measured values taken from US20080058265.

How the values were obtained:
[1] = system: Cys-67-82 protein C
[2] = system: wild-type protein C

With thrombin the “activation rate (rate of APC generation, amidolytic activity assay)” value [1] was “The activation rate was 0.002 nM and 0.16 nM APC/nM thrombin for wild-type and mutant protein C, respectively”, the “fold improvement of activation by thrombin relative to wild-type protein C” value [1] was “improved 60-80-fold” and the “activation rate (rate of APC generation, amidolytic activity assay)” value [2] was “The activation rate was 0.002 nM and 0.16 nM APC/nM thrombin for wild-type and mutant protein C, respectively”.
